Measurements from patent US9353081B2, “Bicyclic dihydroquinoline-2-one derivatives” (Hoffmann-La Roche Inc., priority 2011, dated 2016).

Amino acid sequences for entries named in this document (tags omitted). Residues count along the entry.
UniProt P19099, 25-503: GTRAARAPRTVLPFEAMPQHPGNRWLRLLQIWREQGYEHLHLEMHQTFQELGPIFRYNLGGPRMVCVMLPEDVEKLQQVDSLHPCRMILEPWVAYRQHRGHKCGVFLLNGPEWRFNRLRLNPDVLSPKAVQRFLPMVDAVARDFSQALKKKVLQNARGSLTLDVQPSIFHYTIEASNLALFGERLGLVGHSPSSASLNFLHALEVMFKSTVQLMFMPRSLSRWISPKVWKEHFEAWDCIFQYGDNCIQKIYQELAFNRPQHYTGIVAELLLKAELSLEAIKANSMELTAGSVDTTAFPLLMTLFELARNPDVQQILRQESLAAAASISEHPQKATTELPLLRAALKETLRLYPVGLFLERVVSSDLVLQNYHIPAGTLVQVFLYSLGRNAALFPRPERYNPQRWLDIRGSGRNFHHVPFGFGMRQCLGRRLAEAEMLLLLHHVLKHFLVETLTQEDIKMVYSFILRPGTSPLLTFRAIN
UniProt P15538, 25-503: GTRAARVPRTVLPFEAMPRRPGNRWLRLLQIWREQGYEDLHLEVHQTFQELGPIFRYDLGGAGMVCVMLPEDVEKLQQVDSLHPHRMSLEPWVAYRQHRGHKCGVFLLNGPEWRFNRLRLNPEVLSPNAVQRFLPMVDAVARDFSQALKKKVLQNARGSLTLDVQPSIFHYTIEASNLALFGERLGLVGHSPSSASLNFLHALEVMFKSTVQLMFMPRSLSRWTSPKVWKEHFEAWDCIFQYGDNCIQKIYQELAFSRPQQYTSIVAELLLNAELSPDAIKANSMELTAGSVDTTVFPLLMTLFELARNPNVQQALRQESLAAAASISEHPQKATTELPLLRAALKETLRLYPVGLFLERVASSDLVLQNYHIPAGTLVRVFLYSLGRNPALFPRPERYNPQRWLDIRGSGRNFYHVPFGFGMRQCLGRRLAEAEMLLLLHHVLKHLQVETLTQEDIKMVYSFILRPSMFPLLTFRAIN

Assays:
human CYP11B2 = human CYP11B2 (Homo sapiens (Human), UniProt P19099); assay: G-402 cellular enzyme assay, human CYP11B2 (aldosterone release, HTRF); type: cell-based; settings: G-402 cells expressing human CYP11B2; 1 μM Deoxycorticosterone
Excerpt: (§1) Specifically we developed stable G-402 cells expressing ectopically human CYP11B1, human CYP11B2, human CYP11A1, cynomolgus CYP11B1 or cynomolgus CYP11B2 enzyme activity.
(§2) The expression plasmids contains the ORF for either human/cyno CYP11B1 or CYP11B2 under the control of a suitable promoter (CMV-promoter) and a suitable resistance marker (neomycin). Using standard techniques the expression plasmid is transfected into G-402 cells and these cells are then selected for expressing the given resistance markers. Individual cell-clones are then selected and assessed for displaying the desired enzymatic activity using 11-Deoxycorticosterone (Cyp11B2) or 11-Deoxycortisol (Cyp11B1) as a substrate.
(§3) For assaying enzymatic activity, cells were plated onto 96 well plates and incubated for 16 h. An aliquot of the supernatant is then transferred and analyzed for the concentration of the expected product (Aldosterone for CYP11B2; Cortisol for CYP11B1). The concentrations of these steroids can be determined using HTRF assays from CisBio analyzing either Aldosterone or Cortisol.
(§4) Inhibition of the release of produced steroids can be used as a measure of the respective enzyme inhibition by test compounds added during the cellular enzyme assay. […]
(§5) [formula] wherein, A is the maximum y value, B is the EC50 factor determined using XLFit, C is the minimum y value and D is the slope value. […]

human CYP11B1 = human CYP11B1 (Homo sapiens (Human), UniProt P15538); assay: G-402 cellular enzyme assay, human CYP11B1 (cortisol release, HTRF); type: cell-based; settings: G-402 cells expressing human CYP11B1; 1 μM Deoxycortisol
Excerpt: as §1, §2, §3, §4, §5

Row | Compound | EC50 (human CYP11B2) [nM] | EC50 (human CYP11B1) [nM]
1 | (−)-N-[(7R,8S or 7S,8R)-4-(7-Fluoro-1-methyl-2-oxo-1,2,3,4-tetrahydro-quinolin-6-yl)-7-methyl-5,6,7,8-tetrahydro-isoquinolin-8-yl]-propionamide [Example 44] | 529 | 2050
2 | CCC(=O)N[C@H]1c2cncc(-c3cc4c(cc3F)N(C)C(=O)CC4)c2CC[C@@H]1C (single isomer, unassigned) [Example 45, (+)-N-[(7S,8R or 7R,8S)-4-(7-Fluoro-1-methyl-2-oxo-1,2,3,4-tetrahydro-quinolin-6-yl)-7-methyl-5,6,7,8-tetrahydro-isoquinolin-8-yl]-propionamide] | 54.9 | 2620
